Assay results reported in patent publication US8217035B2, “Pyrimidine derivatives used as PI-3-kinase inhibitors” (Novartis AG, priority 2006, dated 2012).

Sequences of proteins named here, by UniProt entry; tags and fusion partners are left off.
UniProt P42336, whole entry: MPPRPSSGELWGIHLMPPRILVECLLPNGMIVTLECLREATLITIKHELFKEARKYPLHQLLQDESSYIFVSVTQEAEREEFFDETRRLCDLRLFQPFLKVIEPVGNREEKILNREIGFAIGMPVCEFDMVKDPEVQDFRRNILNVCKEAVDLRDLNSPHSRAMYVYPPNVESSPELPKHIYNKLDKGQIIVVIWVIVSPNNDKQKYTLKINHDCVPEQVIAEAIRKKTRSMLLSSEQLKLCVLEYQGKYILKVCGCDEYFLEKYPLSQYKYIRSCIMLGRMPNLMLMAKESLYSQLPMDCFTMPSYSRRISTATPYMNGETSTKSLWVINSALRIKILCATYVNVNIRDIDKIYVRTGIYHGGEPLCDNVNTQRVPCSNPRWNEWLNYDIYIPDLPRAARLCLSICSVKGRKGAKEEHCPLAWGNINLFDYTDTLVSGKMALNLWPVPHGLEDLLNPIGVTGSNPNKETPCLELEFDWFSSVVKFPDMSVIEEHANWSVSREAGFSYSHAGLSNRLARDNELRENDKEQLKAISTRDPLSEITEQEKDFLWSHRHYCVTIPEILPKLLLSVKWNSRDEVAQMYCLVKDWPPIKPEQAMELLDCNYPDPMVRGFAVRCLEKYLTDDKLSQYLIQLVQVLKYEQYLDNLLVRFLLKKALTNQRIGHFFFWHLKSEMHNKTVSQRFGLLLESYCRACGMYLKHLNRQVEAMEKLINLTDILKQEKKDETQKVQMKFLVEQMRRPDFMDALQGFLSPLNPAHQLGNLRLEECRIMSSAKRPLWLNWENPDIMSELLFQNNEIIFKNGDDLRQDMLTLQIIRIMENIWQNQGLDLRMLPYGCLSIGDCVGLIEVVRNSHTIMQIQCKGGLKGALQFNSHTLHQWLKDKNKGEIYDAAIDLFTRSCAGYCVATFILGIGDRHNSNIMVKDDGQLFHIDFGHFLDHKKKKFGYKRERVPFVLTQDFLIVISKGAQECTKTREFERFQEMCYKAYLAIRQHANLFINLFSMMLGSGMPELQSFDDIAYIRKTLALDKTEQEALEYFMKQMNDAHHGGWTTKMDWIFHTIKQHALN
UniProt P27986, whole entry partner: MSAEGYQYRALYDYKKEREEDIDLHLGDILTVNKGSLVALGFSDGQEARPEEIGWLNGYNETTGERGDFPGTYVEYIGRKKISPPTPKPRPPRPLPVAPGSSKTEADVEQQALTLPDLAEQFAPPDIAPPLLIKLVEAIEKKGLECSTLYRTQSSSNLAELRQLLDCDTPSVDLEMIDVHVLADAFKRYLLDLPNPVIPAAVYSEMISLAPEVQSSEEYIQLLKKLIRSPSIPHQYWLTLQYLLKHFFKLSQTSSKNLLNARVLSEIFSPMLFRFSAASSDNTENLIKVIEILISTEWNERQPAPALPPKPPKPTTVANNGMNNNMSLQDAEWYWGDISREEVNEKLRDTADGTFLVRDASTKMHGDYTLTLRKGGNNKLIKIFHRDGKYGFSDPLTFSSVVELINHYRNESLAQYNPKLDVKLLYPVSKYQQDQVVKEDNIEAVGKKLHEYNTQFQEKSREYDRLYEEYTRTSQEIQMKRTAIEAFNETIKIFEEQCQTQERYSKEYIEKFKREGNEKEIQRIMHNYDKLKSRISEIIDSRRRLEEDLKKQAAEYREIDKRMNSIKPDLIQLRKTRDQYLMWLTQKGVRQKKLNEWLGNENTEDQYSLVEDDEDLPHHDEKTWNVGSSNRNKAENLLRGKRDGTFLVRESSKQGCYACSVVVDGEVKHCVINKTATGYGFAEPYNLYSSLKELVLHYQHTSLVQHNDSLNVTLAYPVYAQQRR

How the values were obtained:
PI3 kinase alpha = PI3 kinase alpha (Homo sapiens, UniProt P42336); test: PI3K ATP depletion assay (Biological Method 1, Assay 3; KinaseGlo luminescence); assay type: biochemical; conditions: read-out: PI3 Kinase Alpha, IC50
[1] = test system: A2780 ovarian cancer cells; test: Cellular proliferation in A2780 cells, Cell Titer Glo (Biological Method 4); assay type: cell-based; conditions: read-out: Cellular Proliferation, EC50; ovarian cancer cell line A2780, Biological Method 4

## CS(=O)(=O)c1cccc(-c2cc(-c3ccc(N)nc3)nc(N3CCOCC3)n2)c1
PI3 kinase alpha
  IC50: < 1000 nM
[1]
  EC50: < 10 µM
